Source: patent US10260079B2, “Method for producing ergothioneine by using soybean cake powder as nitrogen source in a seed medium” (TIANJIN INSTITUTE OF INDUSTRIAL BIOTECHNOLOGY, CHINESE …, priority 2014, dated 2019)
Values joined by “and” are separate entries in the source; they are usually repeats but may differ in a detail not shown here. Identical values can stand only once.

Test system: Pleurotus ostreatus mycelia CGMCC No. 6232
Assay: Shake-flask fermentation, total content of ergothioneine in the fermentation broth by HPLC
Format: cell-based

**Q.** Which results are given for `N=C(N)NCCC[C@H](N)C(=O)O` [arginine]?
**A.** Content of ergothioneine in fermentation broth (arginine 0.1 g/L added in fermentation medium): 126.4 ± 2.54 mg/L; Content of ergothioneine in fermentation broth (arginine 0.25 g/L added in fermentation medium): 129.8 ± 3.01 mg/L; Content of ergothioneine in fermentation broth (arginine 0.75 g/L added in fermentation medium): 131.7 ± 1.83 mg/L; Content of ergothioneine in fermentation broth (arginine 2 g/L added in fermentation medium): 134.2 mg/L and 134.2 ± 2.66 mg/L; Content of ergothioneine in fermentation broth (arginine 5 g/L added in fermentation medium): 132.9 ± 2.05 mg/L; Content of ergothioneine in fermentation broth (arginine 7 g/L added in fermentation medium): 125.5 ± 1.24 mg/L
